{
  "sequences": {"note": "Sequences of proteins named here, by UniProt entry; tags and fusion partners are left off.", "UniProt P03372, whole entry": "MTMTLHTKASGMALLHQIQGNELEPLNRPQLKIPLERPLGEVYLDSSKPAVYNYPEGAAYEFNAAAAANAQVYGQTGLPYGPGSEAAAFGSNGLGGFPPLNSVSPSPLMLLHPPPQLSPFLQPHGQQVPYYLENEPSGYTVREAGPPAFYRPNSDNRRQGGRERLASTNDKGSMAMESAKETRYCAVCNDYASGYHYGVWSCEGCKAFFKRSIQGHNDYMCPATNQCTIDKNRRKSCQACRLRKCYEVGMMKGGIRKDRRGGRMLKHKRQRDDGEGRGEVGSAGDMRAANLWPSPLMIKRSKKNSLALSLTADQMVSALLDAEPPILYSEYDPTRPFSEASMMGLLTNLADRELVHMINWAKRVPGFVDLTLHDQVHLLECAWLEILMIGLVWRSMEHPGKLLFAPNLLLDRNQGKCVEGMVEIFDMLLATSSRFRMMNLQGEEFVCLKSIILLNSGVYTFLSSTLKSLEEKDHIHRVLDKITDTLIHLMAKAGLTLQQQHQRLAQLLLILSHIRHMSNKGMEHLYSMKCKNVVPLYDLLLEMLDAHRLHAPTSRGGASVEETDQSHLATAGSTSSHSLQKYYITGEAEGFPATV"},
  "source": "patent US10004748B2",
  "about": "“Methods of treating PR-positive, luminal A breast cancer with PI3K inhibitor, pictilisib” (Genentech, Inc., priority 2014, dated 2018)",
  "origin": "cited, not measured here",
  "target": "ER (Homo sapiens, UniProt P03372)",
  "settings": "greater than that of tamoxifen (Howell et al. 2000); cited from earlier work",
  "data": [
    {"compound": "C[C@]12CC[C@@H]3c4ccc(O)cc4C[C@@H](CCCCCCCCC[S+]([O-])CCCC(F)(F)C(F)(F)F)[C@H]3[C@@H]1CC[C@@H]2O", "note": "(stereo partly drawn) [fulvestrant, (7α,17β)-7-{9-[(4,4,5,5,5-pentafluoropentyl)sulfinyl]nonyl}estra-1,3,5(10)-triene-3,17-diol, reference compound]", "values": [
      {"measurement": "affinity for the ER relative to tamoxifen", "value": "approximately 100 fold"}
    ]}
  ]
}
